Patent publication US11744819B2, “Antibiotic cannabinoid-terpene formulations” (priority 2019, dated 2023)

Assays:
[1] = test system: E. faecium clinical isolate 58C9 (vancomycin and daptomycin resistant); conditions: E. faecium isolate 58c9
E. faecium VRE 55A6 = type: cell-based, Enterococcus faecium
Text: In therapeutic applications, synergy between active ingredients occurs when an observed combined therapeutic effect is greater than the sum of therapeutic effects of individual active ingredients, or a new therapeutic effect is produced that the active ingredients could not produce alone. […] In this context, the enhancement of therapeutic effect may take the form of increased efficacy or potency and/or decreased adverse effects. The synergistic effect may be mediated in whole or in part by the pharmacokinetics and/or pharmacodynamics of the active ingredients in a subject, so that the amount and proportion of the ingredients in the formulation may be synergistic in vivo. This in vivo synergy may be effected with a formulation that includes the active ingredients in amounts and proportions that are also synergistic in in vitro assays of efficacy. As used herein, the term “synergistically effective amounts” accordingly refers to amounts that are synergistic in vivo and/or in vitro. A numeric quantification of synergy is often expressed as a fractional inhibitory concentration index (FICI), which represents the sum of the fractional inhibitory concentrations (FICs) of each drug tested, where the FIC is determined for each drug by dividing the minimum inhibitory concentration (MIC, the lowest concentration of the drug which prevents visible growth of the bacterium in a standard in vitro assay-standard colorometric assay based on resazurin) of each drug when used in combination by the MIC of each drug when used alone. […]
Pre-cultures of bacteria growing in their corresponding liquid media (defined below) were diluted to an 00600 of 0.0025 and 100 μl was added to 100 μl of medium containing serial 2-fold dilutions of cannabinoid (cannabinoid stocks, in methanol or acetonitrile for acidic forms, were diluted in growth medium) in 96-well plates. Plates were then incubated for 20-24 h at 37° C., and growth was recorded as 00600 in a Thermo Scientific™ Varioskan™ Flash Multimode Reader. […]

[2] = test system: E. faecium clinical isolate 69C6 (vancomycin resistant); conditions: E. faecium isolate 69C6
[3] = test system: Enterococcus faecium 33D3; conditions: E. faecium isolate 3303
[4] = test system: E. faecium clinical isolate 55A6 (vancomycin and daptomycin resistant); conditions: E. faecium isolate 55a6

C=C(C)[C@@H]1CCC(C)=C[C@H]1c1c(O)cc(CCCCC)cc1O [CBD, cannabidiol, reference compound]
Fold reduction in daptomycin MIC in combination with the cannabinoid [1]: 32 Fold | Max. fold change in MIC (E. faecium VRE 55A6; pairwise, with daptomycin): 8 fold | Max. fold change in MIC (E. faecium VRE 55A6; pairwise, with trans-caryophyllene): 2 fold | Max. fold change in MIC (E. faecium VRE 55A6; triple, with daptomycin and trans-caryophyllene): 8 fold | Fold reduction in daptomycin MIC in combination with the cannabinoid [2]: 4 Fold | Fold reduction in daptomycin MIC in combination with the cannabinoid [3]: 16 Fold | Fold reduction in daptomycin MIC in combination with the cannabinoid [4]: 16 Fold

Read-outs that look alike come from different tables or passages of the source.
